BindingDB's records for PubMed 8510008 (Eli Lilly, 1993)

The chains behind the UniProt entries cited, without tags or fusion partners. Where a name states a change or a piece, a line headed by the entry shows the natural chain unless it says otherwise.
UniProt P28335: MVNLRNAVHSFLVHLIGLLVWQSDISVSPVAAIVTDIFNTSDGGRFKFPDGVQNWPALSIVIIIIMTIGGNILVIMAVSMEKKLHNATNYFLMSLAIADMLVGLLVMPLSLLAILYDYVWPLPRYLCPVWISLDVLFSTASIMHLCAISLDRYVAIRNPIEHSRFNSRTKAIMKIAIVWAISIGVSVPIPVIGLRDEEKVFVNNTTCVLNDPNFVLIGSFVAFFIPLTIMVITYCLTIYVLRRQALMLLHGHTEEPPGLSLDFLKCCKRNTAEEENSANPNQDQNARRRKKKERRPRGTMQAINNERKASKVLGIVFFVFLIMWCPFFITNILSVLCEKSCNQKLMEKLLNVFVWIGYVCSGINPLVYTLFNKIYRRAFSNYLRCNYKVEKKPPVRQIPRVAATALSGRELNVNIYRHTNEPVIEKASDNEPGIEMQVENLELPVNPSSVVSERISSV

Target: 5-hydroxytryptamine receptor 2C (Homo sapiens, UniProt P28335)

CN1C[C@@H](NS(=O)(=O)N(C)C)C[C@@H]2c3cccc4c3c(cn4C)C[C@H]21 [MESULERGINE]
Ki: 48.5 nM
